Literature values as cited in publication PMC6943441, “The Meta-Position of Phe^4 in Leu-Enkephalin Regulates Potency, Selectivity, Functional Activity, and Signaling Bias at the Delta and Mu Opioid Receptors” (Molecules, 2019).
Where two headings read alike, the source gives them in different places.

How the values were obtained:
δOR [1] = biological target: T1, δOR (Homo sapiens, UniProt P41143)
δOR [2] = biological target: T1, δOR; details: read-out: cAMP potency

Compound: Cc1cc(O)cc(C)c1C[C@H](N)C(=O)N1Cc2ccccc2C[C@H]1C(=O)N[C@@H](CC(=O)O)c1nc2ccccc2[nH]1
- β-arrestin 2 efficacy (δOR [1]): 60%
- EC50 (δOR [1]; read-out: β-arrestin 2 potency): 20 nM
- EC50 (δOR [2]): 0.4 nM
